Legend:
[1] = test system: Tregs in CD4+ T cells; conditions: SLE patients, 1 MIU SC every other day for 2 weeks, then 2-week treatment free; cited from earlier work
[2] = test system: Kit225 Interferon Regulatory Factor 1 (IRF1)-driven reporter cell line; assay: Kit225 IRF1-driven reporter cell line assay; type: cell-based; conditions: read-out: average half-maximal effective concentration (EC50)

EC50 [2]: 0.027 nM
Substance: recombinant IL-2: recombinant (human) IL-2 used as comparator; rhIL-2 in clinical SLE study [reference compound]
trough Δ% Tregs in CD4+ T cells [1]: 1%

Reference: patent publication US20240325495A1, “FUSION PROTEINS FOR THE TREATMENT OF DISEASE” (Bristol-Myers Squibb Company, priority 2020, published 2024)
